The values that follow come from patent US20190030149.

This series addresses T1, peptide CRMFPNAPYL (SEQ ID NO: 13), Example 2.
T1 chain: CRMFPNAPYL

B1: Endoplasmic reticulum aminopeptidase 1 (protein)
chain: MVFLPLKWSLATMSFLLSSLLALLTVSTPSWCQSTEASPKRSDGTPFPWNKIRLPEYVIPVHYDLLIHANLTTLTFWGTTKVEITASQPTSTIILHSHHLQISRATLRKGAGERLSEEPLQVLEHPRQEQIALLAPEPLLVGLPYTVVIHYAGNLSETFHGFYKSTYRTKEGELRILASTQFEPTAARMAFPCFDEPAFKASFSIKIRREPRHLAISNMPLVKSVTVAEGLIEDHFDVTVKMSTYLVAFIISDFESVSKITKSGVKVSVYAVPDKINQADYALDAAVTLLEFYEDYFSIPYPLPKQDLAAIPDFQSGAMENWGLTTYRESALLFDAEKSSASSKLGITMTVAHELAHQWFGNLVTMEWWNDLWLNEGFAKFMEFVSVSVTHPELKVGDYFFGKCFDAMEVDALNSSHPVSTPVENPAQIREMFDDVSYDKGACILNMLREYLSADAFKSGIVQYLQKHSYKNTKNEDLWDSMASICPTDGVKGMDGFCSRSQHSSSSSHWHQEGVDVKTMMNTWTLQKGFPLITITVRGRNVHMKQEHYMKGSDGAPDTGYLWHVPLTFITSKSDMVHRFLLKTKTDVLILPEEVEWIKFNVGMNGYYIVHYEDDGWDSLTGLLKGTHTAVSSNDRASLINNAFQLVSIGKLSIEKALDLSLYLKHETEIMPVFQGLNELIPMYKLMEKRDMNEVETQFKAFLIRLLRDLIDKQTWTDEGSVSERMLRSQLLLLACVHNYQPCVQRAEGYFRKWKESNGNLSLPVDVTLAVFAVGAQSTEGWDFLYSKYQFSLSSTEKSQIEFALCRTQNKEKLQWLLDESFKGDKIKTQEFPQILTLIGRNPVGYPLAWQFLRKNWNKLVQKFELGSSSIAHMVMGTTNQFSTRTRLEEVKGFFSSLKENGSQLRCVQQTIETIEENIGWMDKNFDKIRVWLQSEKLERM
Consider B1, for which the formation rate (%) of the peptide obtained by trimming (SEQ ID NO: 2), 1 hr later worked out at 25.5%; the formation rate (%) of the peptide obtained by trimming (SEQ ID NO: 2), 2 hr later is 35.2%; the formation rate (%) of the peptide obtained by trimming (SEQ ID NO: 2), 4 hr later was determined as 46.2%; the formation rate (%) of the peptide obtained by trimming (SEQ ID NO: 2), 8 hr later is 47.6%.
